Legend:
[1] = target: T1, Cannabinoid receptor 1 (Homo sapiens, UniProt P21554); assay: Antagonist activity at human CB1 expressed in CHOK1 cells co-expressing Galpha-q16 assessed as reduction in CP55940-induced inositol phosphatase 3-mediated intercellular calcium mobilization by Calcein-4 AM dye-based FLIPR assay; assay type: functional, cell-based
[2] = target: T2, Cannabinoid receptor 2 (Homo sapiens, UniProt P34972); assay: biochemical
[3] = target: T1, Cannabinoid receptor 1; assay: biochemical
[4] = Permeability from apical to basolateral side in MDCK2-MDR1 cells assessed as drug transport at 10 uM after 1 hr by mass spectrometry; assay type: ADME, cell-based, Canis lupus familiaris; settings: dog, mdck-mdr1, 1 h
[5] = organism: Homo sapiens; assay: Selectivity ratio of Ki for human CB2 to Ki for human CB1
[6] = target: T2, Cannabinoid receptor 2
[7] = target: Voltage-gated inwardly rectifying potassium channel KCNH2 (Homo sapiens, UniProt Q12809)
[8] = in vivo; settings: C57BL/6, mouse, plasma, po, 10 mg/kg
[9] = in vivo; settings: C57BL/6, mouse, liver, po, 10 mg/kg
[10] = in vivo; settings: C57BL/6, mouse, brain, po, 10 mg/kg
[11] = in vivo; settings: C57BL/6, mouse, plasma, po, 10 mg/kg; remark: listed apart in the source
[12] = in vivo; settings: C57BL/6, mouse, liver, po, 10 mg/kg; remark: listed apart in the source
[13] = in vivo; settings: C57BL/6, mouse, brain, po, 10 mg/kg; remark: listed apart in the source
[14] = in vivo; settings: C57BL/6, mouse, liver, po, 10 mg/kg; remark: listed apart in the source
[15] = in vivo; settings: C57BL/6, mouse, brain, po, 10 mg/kg; remark: listed apart in the source
[16] = in vivo; settings: C57BL/6, mouse, plasma, po, 10 mg/kg; remark: listed apart in the source
[17] = target: T1, Cannabinoid receptor 1

Sequences of proteins named here, by UniProt entry; tags and fusion partners are left off. A change or cut given only in a name is not applied to a line headed by its entry.
UniProt P21554, whole entry: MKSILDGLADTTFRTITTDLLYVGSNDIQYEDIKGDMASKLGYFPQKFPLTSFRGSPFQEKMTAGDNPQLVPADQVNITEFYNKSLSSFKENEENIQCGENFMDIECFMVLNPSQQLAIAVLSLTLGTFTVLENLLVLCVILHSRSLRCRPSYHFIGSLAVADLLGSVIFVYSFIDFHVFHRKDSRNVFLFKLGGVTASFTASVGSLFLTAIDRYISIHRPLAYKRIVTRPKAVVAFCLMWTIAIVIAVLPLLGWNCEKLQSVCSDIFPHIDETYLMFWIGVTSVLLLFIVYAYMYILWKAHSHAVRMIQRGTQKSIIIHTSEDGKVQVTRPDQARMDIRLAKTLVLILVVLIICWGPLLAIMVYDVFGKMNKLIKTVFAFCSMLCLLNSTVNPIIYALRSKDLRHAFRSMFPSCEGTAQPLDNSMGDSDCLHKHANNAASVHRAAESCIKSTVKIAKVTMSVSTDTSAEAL
UniProt P34972, whole entry: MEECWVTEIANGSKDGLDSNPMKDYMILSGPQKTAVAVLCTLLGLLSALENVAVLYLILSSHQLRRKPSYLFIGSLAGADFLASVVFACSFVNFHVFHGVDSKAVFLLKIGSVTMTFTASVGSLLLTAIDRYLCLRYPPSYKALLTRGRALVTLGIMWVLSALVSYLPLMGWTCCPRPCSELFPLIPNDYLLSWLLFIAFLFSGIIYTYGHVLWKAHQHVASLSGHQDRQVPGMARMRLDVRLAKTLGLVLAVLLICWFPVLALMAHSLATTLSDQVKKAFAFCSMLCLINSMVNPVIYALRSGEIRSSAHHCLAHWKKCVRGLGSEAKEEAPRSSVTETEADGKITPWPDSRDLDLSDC
UniProt Q12809: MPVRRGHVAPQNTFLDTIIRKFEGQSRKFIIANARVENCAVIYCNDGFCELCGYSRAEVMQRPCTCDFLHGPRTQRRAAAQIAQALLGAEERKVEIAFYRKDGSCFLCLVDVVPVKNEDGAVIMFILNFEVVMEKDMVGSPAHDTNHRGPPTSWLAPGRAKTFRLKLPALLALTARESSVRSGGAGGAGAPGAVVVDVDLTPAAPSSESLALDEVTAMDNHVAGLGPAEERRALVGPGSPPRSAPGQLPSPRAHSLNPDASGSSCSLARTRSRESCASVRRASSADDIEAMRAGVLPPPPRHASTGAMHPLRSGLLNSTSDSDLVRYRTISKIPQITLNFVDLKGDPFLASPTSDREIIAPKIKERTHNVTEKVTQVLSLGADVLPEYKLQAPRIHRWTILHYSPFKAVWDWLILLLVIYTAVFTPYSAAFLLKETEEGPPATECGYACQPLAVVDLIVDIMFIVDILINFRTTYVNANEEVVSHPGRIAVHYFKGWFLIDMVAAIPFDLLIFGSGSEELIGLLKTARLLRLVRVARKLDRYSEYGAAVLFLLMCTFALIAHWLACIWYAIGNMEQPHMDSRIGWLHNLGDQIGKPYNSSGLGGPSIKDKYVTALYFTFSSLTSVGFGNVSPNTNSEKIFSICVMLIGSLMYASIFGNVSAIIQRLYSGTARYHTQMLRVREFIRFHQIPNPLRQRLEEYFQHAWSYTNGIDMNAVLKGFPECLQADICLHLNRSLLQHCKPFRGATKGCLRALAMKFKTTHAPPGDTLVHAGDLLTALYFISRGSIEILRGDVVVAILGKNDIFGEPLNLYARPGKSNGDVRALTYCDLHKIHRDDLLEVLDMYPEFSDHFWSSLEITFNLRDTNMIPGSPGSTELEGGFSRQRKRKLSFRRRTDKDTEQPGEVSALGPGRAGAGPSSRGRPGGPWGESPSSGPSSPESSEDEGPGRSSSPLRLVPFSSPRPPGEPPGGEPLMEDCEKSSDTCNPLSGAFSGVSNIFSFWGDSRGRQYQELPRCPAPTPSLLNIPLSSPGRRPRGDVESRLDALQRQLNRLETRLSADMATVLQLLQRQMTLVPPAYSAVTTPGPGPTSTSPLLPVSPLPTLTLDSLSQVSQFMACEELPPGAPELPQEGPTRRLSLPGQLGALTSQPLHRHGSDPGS

SMILES: Cc1c(CN2CCN(c3ncnc4c3nc(-c3ccccc3Cl)n4-c3ccc(Cl)cc3)CC2)cnn1C
- Ke [1]: 42 nM

SMILES: N#Cc1ccccc1CN1CCN(c2ncnc3c2nc(-c2ccccc2Cl)n3-c2ccc(Cl)cc2)CC1
- Ki [2]: > 10000 nM
- Ke [1]: 21 nM

SMILES: Clc1ccc(-n2c(-c3ccccc3Cl)nc3c(N4CCN(C5CCCCC5)CC4)ncnc32)cc1
- Ki [2]: 110 nM
- Ke [1]: 17 nM
- Ki [3]: 2 nM

SMILES: FC(F)(F)c1ccccc1CN1CCN(c2ncnc3c2nc(-c2ccccc2Cl)n3-c2ccc(Cl)cc2)CC1
- Ki [2]: > 10000 nM
- Ke [1]: 5 nM

SMILES: Cc1nc(CN2CCN(c3ncnc4c3nc(-c3ccccc3Cl)n4-c3ccc(Cl)cc3)CC2)no1
- Ke [1]: 12 nM

SMILES: Clc1ccc(-n2c(-c3ccccc3Cl)nc3c(N4CCN(c5ccccn5)CC4)ncnc32)cc1
- Ki [2]: 1400 nM
- Ke [1]: 13 nM
- Ki [3]: 2 nM

SMILES: Fc1ccc(N2CCN(c3ncnc4c3nc(-c3ccccc3Cl)n4-c3ccc(Cl)cc3)CC2)cc1
- Ki [2]: 5100 nM

SMILES: COc1ccccc1N1CCN(c2ncnc3c2nc(-c2ccccc2Cl)n3-c2ccc(Cl)cc2)CC1
- Drug transport [4]: 0%
- Ratio Ki [5]: 2500

SMILES: CCNC1(C(N)=O)CCN(c2ncnc3c2nc(-c2ccccc2Cl)n3-c2ccc(Cl)cc2)CC1 [OTENABANT]
- Ki [6]: 7700 nM

SMILES: CC(c1ccncc1)N1CCN(c2ncnc3c2nc(-c2ccccc2Cl)n3-c2ccc(Cl)cc2)CC1 (stereo unspecified)
- Ki [2]: 1100 nM
- Ke [1]: 0.5 nM
- Ratio Ki [5]: 92
- Ki [7]: > 10000 nM

SMILES: Clc1ccc(-n2c(-c3ccccc3Cl)nc3c(N4CCN(Cc5ccccc5Cl)CC4)ncnc32)cc1
- Ki [2]: > 10000 nM
- Cmax [8]: 507 ng/mL
- half-life [9]: 5.3 h
- Cmax [10]: 17 ng/g
- Tmax [11]: 0.5 h
- Tmax [12]: 0.5 h
- half-life [13]: 11.9 h
- Cmax [14]: 2080 ng/g
- Tmax [15]: 0.5 h
- half-life [16]: 5.4 h
- Ki [7]: > 10000 nM

SMILES: Clc1ccc(-n2c(-c3ccccc3Cl)nc3c(N4CCN(Cc5ccncc5)CC4)ncnc32)cc1
- Ke [1]: 6 nM
- Ki [3]: 22 nM

SMILES: Clc1ccc(-n2c(-c3ccccc3Cl)nc3c(N4CCN(Cc5ccncc5Cl)CC4)ncnc32)cc1
- Ki [2]: > 10000 nM
- Ke [1]: 3 nM

SMILES: CC(c1ccccc1)N1CCN(c2ncnc3c2nc(-c2ccccc2Cl)n3-c2ccc(Cl)cc2)CC1 (stereo unspecified)
- Ki [2]: 1300 nM

SMILES: CN1CCN(c2ncnc3c2nc(-c2ccccc2Cl)n3-c2ccc(Cl)cc2)CC1
- Ki [17]: 3 nM

SMILES: Fc1ccc(CN2CCN(c3ncnc4c3nc(-c3ccccc3Cl)n4-c3ccc(Cl)cc3)CC2)cc1
- Ki [2]: > 10000 nM
- Ki [3]: 4 nM
- Ki [7]: > 10000 nM

SMILES: Fc1ccccc1CN1CCN(c2ncnc3c2nc(-c2ccccc2Cl)n3-c2ccc(Cl)cc2)CC1
- Ki [2]: 2300 nM
- Ke [1]: 0.9 nM
- Ki [3]: 7 nM

SMILES: Clc1ccc(-n2c(-c3ccccc3Cl)nc3c(N4CCN(CCc5ccccc5)CC4)ncnc32)cc1
- Ki [2]: 2100 nM

SMILES: FC(F)(F)Oc1ccccc1CN1CCN(c2ncnc3c2nc(-c2ccccc2Cl)n3-c2ccc(Cl)cc2)CC1
- Ke [1]: 4 nM

SMILES: Clc1ccc(-n2c(-c3ccccc3Cl)nc3c(N4CCN(Cc5cccc(Cl)c5)CC4)ncnc32)cc1
- Ki [2]: > 10000 nM

From ChEMBL document CHEMBL4219244, “Blocking Alcoholic Steatosis in Mice with a Peripherally Restricted Purine Antagonist of the Type 1 Cannabinoid Receptor” (J Med Chem, 2018)
